# Earlier results as cited in patent publication US11925623B2 (priority 2020, dated 2024).
# Like-named read-outs stand apart in the source and are kept apart here.
# Tests used:
# cyanide toxicity [1] = conditions: lethal swine model; ip and iv; cited from earlier work
# cyanide toxicity [2] = conditions: sublethal murine model; ip and iv; cited from earlier work
smiles,measurement,setting,value
O=C(O)C1(O)CSC(O)(C(=O)O)CS1 (centres unmarked) [sulfanegen],rescue from cyanide toxicity,cyanide toxicity [1],highly effective
same,rescue from cyanide toxicity,cyanide toxicity [2],highly effective
